# Measured values taken from ChEMBL document CHEMBL1154241, “A QSAR study on relationship between structure of sulfonamides and their carbonic anhydrase inhibitory activity using the eigenvalue (EVA) method” (Eur J Med Chem, 2009).
# Target: Carbonic anhydrase 2 (Homo sapiens) (UniProt P00918)
# Assay: Inhibition of carbonic anhydrase 2 assessed as inhibition of carbon dioxide hydration
compound,measurement,value
NS(=O)(=O)c1ccc(C/N=C/c2cc([N+](=O)[O-])c([N+](=O)[O-])c([N+](=O)[O-])c2)cc1,logKi,1.3
